# Laboratory results taken from EP0754455A1, “PHARMACEUTICAL COMPOSITIONS BASED ON AMINOMETHYLINDOLES AND THEIR THERAPEUTICAL APPLICATION AS NEUROPROTECTORS IN PARKINSON AND ALZHEIMER DISEASES” (CONSEJO SUPERIOR INVESTIGACIONES CIENTIFICAS (CSIC), priority 1995, dated 1996).
# The chains behind the UniProt entries cited, without tags or fusion partners.
# UniProt Q8BW75, whole entry: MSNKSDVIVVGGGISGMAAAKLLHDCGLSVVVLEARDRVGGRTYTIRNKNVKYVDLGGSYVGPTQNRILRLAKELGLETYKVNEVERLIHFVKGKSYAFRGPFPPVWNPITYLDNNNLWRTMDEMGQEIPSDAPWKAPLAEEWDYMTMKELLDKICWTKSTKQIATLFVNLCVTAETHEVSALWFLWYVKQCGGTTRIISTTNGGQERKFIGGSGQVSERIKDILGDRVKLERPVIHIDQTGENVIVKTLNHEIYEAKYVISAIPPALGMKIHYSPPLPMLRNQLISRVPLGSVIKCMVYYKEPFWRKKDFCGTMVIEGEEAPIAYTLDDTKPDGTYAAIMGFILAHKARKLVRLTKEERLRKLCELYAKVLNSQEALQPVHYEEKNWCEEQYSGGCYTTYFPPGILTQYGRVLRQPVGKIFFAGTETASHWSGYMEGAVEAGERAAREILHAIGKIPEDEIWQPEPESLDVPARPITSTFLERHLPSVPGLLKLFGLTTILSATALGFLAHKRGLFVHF
# Target: MAO-B (Mus musculus, UniProt Q8BW75)
# Experiment: Ex vivo inhibition of brain MAO-B after i.p. administration
# Settings: mouse brain homogenate 2 hours after i.p., l-deprenyl 10 mg/Kg, tested compound 4 mg/Kg
structure (smiles),measurement,setting,value
"C#CCN(C)[C@H](C)Cc1ccccc1 [deprenyl, reference compound]",MAO-B ACTIVITY,control 303,15
same,MAO-B ACTIVITY (% of control),control = 100%,4.8%
